{"sequences": {"note": "Protein sequences, listed by entry. Tags and fused reporters are not part of them.", "UniProt P49137, whole entry, species assumed": "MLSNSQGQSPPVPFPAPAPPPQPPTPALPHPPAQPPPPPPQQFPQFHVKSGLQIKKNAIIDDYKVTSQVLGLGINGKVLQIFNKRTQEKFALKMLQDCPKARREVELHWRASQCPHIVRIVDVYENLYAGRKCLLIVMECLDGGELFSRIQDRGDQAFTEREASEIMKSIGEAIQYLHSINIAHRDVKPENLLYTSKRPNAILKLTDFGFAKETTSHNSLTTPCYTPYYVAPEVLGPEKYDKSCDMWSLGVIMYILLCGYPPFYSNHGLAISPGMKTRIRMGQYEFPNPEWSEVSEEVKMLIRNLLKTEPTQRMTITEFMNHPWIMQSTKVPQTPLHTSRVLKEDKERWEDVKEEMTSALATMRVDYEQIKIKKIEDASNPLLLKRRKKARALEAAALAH"}, "source": "patent US20040127511A1", "about": "(Pharmacia Corporation, priority 2002, published 2004)", "biological_target": "MAPKAPK2 (Homo sapiens, UniProt P49137)", "test": "biochemical"}
{"smiles": "COc1ccc2c(c1)Cc1c(nc(N)c(C#N)c1N)S2(=O)=O", "note": "[No. 94, 7,8-dimethoxy-2,4-bis[(2-methoxyethyl)amino]-5H-chromeno[2,3-b]pyridine-3-carbonitrile]", "values": [{"measurement": "IC50", "result": "≥ 200", "unit": "µM"}]}
